Results: paper PMC10017709, “Structural basis of selective cannabinoid CB2 receptor activation” (Nature Communications, 2023)
Like-named read-outs stand apart in the source and are kept apart here.

By UniProt entry, the sequences of proteins in these tests, tags left out.
UniProt P34972, whole entry: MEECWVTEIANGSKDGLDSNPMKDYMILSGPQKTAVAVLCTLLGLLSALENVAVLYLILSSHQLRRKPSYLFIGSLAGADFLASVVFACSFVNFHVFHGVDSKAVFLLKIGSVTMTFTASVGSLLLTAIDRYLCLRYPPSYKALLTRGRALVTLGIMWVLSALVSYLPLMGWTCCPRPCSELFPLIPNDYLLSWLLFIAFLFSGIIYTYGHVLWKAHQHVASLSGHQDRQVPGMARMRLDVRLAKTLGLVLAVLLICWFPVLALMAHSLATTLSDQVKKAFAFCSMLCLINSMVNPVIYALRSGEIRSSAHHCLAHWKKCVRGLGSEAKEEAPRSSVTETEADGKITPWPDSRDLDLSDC
UniProt P34972, whole entry I110L: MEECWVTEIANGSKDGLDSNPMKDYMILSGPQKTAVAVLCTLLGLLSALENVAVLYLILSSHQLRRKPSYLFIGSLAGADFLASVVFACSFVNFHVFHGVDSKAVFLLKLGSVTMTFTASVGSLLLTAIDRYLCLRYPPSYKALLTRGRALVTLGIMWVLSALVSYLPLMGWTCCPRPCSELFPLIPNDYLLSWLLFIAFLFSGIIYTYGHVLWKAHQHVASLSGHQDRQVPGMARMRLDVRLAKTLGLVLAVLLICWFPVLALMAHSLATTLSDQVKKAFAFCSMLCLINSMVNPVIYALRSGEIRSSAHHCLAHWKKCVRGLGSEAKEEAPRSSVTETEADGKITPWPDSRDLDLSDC
UniProt P34972, whole entry E181D: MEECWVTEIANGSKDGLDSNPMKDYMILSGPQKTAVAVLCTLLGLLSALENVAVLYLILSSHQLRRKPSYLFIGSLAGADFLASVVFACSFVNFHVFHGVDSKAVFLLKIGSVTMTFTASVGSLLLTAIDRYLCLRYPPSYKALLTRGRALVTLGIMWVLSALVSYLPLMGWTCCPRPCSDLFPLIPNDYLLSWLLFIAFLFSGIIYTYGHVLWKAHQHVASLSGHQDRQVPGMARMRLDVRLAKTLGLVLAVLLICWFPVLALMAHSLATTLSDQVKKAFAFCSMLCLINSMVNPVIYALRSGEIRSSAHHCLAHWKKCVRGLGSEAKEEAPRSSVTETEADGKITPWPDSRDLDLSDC
UniProt P34972, whole entry L185H: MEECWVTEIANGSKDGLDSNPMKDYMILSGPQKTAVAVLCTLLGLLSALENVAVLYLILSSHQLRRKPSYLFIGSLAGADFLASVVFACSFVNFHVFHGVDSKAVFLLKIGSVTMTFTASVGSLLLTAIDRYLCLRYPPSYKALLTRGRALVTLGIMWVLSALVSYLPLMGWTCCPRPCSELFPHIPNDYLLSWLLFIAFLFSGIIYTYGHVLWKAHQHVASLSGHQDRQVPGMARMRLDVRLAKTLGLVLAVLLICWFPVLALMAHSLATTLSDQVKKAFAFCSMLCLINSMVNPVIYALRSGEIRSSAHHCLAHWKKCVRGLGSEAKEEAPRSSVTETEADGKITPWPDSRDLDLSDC
UniProt P34972, whole entry L182I: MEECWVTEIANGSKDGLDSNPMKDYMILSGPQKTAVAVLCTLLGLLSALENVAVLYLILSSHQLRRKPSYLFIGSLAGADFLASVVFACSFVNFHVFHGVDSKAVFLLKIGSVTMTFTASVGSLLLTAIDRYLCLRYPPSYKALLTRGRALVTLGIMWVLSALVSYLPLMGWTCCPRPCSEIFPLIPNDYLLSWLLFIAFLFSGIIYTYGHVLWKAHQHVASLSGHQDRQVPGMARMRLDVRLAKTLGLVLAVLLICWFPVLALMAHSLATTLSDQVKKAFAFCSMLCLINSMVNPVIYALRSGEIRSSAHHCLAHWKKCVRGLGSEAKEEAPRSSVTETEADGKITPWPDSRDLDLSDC
UniProt P34972, whole entry K33Q/V36I/C40S/K279T: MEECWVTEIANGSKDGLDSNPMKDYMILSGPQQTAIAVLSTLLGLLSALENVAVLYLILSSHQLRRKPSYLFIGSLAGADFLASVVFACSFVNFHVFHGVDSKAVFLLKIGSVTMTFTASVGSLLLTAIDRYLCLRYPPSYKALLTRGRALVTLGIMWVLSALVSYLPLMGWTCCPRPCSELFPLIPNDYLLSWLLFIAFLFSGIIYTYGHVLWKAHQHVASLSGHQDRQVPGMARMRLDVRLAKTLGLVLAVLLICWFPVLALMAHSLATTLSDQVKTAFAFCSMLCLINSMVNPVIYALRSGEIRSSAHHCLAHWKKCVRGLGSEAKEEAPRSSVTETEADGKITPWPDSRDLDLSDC
UniProt P34972, whole entry S285A: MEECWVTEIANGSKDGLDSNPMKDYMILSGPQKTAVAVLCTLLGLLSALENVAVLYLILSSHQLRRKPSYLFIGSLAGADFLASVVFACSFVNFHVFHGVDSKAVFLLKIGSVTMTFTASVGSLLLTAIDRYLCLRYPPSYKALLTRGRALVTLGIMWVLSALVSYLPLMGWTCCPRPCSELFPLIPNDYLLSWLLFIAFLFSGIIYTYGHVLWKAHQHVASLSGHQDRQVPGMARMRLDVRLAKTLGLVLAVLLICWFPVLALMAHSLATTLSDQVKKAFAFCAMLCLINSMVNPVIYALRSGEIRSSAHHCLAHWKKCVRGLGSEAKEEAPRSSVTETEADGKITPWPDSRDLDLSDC
UniProt P34972, whole entry H95A: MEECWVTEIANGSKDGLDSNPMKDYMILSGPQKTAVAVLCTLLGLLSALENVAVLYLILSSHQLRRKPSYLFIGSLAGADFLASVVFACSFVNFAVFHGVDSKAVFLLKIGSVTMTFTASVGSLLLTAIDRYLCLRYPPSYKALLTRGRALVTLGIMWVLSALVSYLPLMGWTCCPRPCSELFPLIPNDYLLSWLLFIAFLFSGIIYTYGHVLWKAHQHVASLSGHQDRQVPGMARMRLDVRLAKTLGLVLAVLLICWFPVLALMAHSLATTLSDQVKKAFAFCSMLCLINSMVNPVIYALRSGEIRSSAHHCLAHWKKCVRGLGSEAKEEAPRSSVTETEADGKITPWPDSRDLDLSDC
UniProt P34972, whole entry V261L: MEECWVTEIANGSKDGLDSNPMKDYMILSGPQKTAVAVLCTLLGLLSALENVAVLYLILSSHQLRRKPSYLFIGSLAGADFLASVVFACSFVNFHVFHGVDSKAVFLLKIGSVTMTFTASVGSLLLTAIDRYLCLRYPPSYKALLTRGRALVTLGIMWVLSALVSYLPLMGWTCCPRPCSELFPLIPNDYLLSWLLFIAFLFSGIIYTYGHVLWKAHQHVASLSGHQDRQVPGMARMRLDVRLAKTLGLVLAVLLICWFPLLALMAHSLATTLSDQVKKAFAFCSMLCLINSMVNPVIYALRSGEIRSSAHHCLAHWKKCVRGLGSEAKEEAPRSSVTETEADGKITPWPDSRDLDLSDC

Legend:
hCB2R [1] = target: T1, hCB2R (Homo sapiens, UniProt P34972); assay: [3H]RO6957022 displacement assay; type: binding
T1 construct: host or cells: CHO-K1 (CHOK1_hCB2bgal, PathHunter), membranes

CB2R-I110^3.29L [2] = target: T2, CB2R-I110^3.29L (Homo sapiens, UniProt P34972, I110L); assay: [3H]CP55,940 displacement assay, CB2R I110L mutant; type: binding
hCB2R [3] = target: T1, hCB2R; assay: [3H]RO6957022 competition association assay; type: binding
CB2R-E181^ECL2D = CB2R-E181^ECL2D (Homo sapiens, UniProt P34972, E181D); assay: [35S]GTPγS assay, CB2R E181D mutant; type: biochemical
CB2R WT [4] = target: T3, CB2R WT (Homo sapiens, UniProt P34972); assay: [3H]CP55,940 displacement assay, CB2R WT; type: binding
CB2R-L185^ECL2H [5] = target: T4, CB2R-L185^ECL2H (Homo sapiens, UniProt P34972, L185H); assay: [3H]CP55,940 displacement assay, CB2R L185H mutant; type: binding
CB2R-L182^ECL2I = CB2R-L182^ECL2I (Homo sapiens, UniProt P34972, L182I); assay: [35S]GTPγS assay, CB2R L182I mutant; type: biochemical
CB2R WT [6] = target: T3, CB2R WT; assay: [35S]GTPγS G protein activation assay, CB2R WT; type: biochemical
CB2R-L185^ECL2H [7] = target: T4, CB2R-L185^ECL2H; assay: [35S]GTPγS assay, CB2R L185H mutant; type: biochemical
CB2R-Quadruple^TM1,7 [8] = target: T5, CB2R-Quadruple^TM1,7 (Homo sapiens, UniProt P34972, C40S/K279T/K33Q/V36I); assay: [35S]GTPγS assay, CB2R quadruple mutant; type: biochemical; details: Quadruple TM1,7 mutant; <5 when curve fit not finished
CB2R-Quadruple^TM1,7 [9] = target: T5, CB2R-Quadruple^TM1,7; assay: [3H]CP55,940 displacement assay, CB2R quadruple mutant; type: binding
CB2R-I110^3.29L [10] = target: T2, CB2R-I110^3.29L; assay: [35S]GTPγS assay, CB2R I110L mutant; type: biochemical
CB2R-S285^7.39A = CB2R-S285^7.39A (Homo sapiens, UniProt P34972, S285A); assay: [35S]GTPγS assay, CB2R S285A mutant; type: biochemical
CB2R-H95^2.65A = CB2R-H95^2.65A (Homo sapiens, UniProt P34972, H95A); assay: [35S]GTPγS assay, CB2R H95A mutant; type: biochemical
CB2R-V261^6.51L = CB2R-V261^6.51L (Homo sapiens, UniProt P34972, V261L); assay: [35S]GTPγS assay, CB2R V261L mutant; type: biochemical

Question: With CCCCC/C=C\C/C=C\C/C=C\C/C=C\CCCC(=O)NCCO [AEA, anandamide] as the molecule, how does the Ki (hCB2R [1]; CHOK1_hCB2bgal membranes, 10 °C, read-out: Ki) read?
Answer: 485 nM

Question: What about the Ki (CB2R-I110^3.29L [2]) of the same molecule?
Answer: 794 nM

Question: What about the Kd (hCB2R [3]; KD = koff/kon, read-out: Kinetic KD) of the same molecule?
Answer: 372 nM

Question: What about the EC50 (CB2R-E181^ECL2D; E181D mutant, <5 when curve fit not finished, read-out: pEC50 (converted)) of the same molecule?
Answer: > 10000 nM

Question: And the Ki (CB2R WT [4])?
Answer: 631 nM

Question: What about the Ki (CB2R-L185^ECL2H [5]) of the same molecule?
Answer: 501 nM

Question: And the EC50 (CB2R-L182^ECL2I; L182I mutant, <5 when curve fit not finished, read-out: pEC50 (converted))?
Answer: > 10000 nM

Question: And the EC50 (CB2R WT [6]; [35S]GTPγS, HEK293T membranes transiently expressing CB2R WT, read-out: pEC50 (converted))?
Answer: 501 nM

Question: What about the EC50 (CB2R-L185^ECL2H [7]; L185H mutant, HEK293T membranes, read-out: pEC50 (converted)) of the same molecule?
Answer: 251 nM

Question: What about the EC50 (CB2R-Quadruple^TM1,7 [8]) of the same molecule?
Answer: > 10000 nM

Question: And the Ki (CB2R-Quadruple^TM1,7 [9]; CB2R Quadruple TM1,7 mutant, <5 when curve fit not finished, read-out: pKi (converted))?
Answer: 2510 nM

Question: Which results are given for CCCCCCC(C)(C)c1cc(OC)c([C@@H]2C=C(CO)[C@@H]3C[C@H]2C3(C)C)c(OC)c1 [HU308]?
Answer: Ki (hCB2R [1]): 92.4 nM; EC50 (CB2R-I110^3.29L [10]): 200 nM; pEC50 (CB2R-I110^3.29L [10]; I110L mutant, HEK293T membranes): not affected; Ki (CB2R-I110^3.29L [2]): 50.1 nM; pKi (CB2R-I110^3.29L [2]): not affected; Kd (hCB2R [3]): 33.7 nM; EC50 (CB2R-E181^ECL2D): 100 nM; Ki (CB2R WT [4]): 15.8 nM; Ki (CB2R-L185^ECL2H [5]): 63.1 nM; EC50 (CB2R-L182^ECL2I): > 10000 nM; pEC50 (CB2R-L182^ECL2I; L182I mutant, <5 when curve fit not finished): less potent; EC50 (CB2R-S285^7.39A): 1260 nM; EC50 (CB2R-H95^2.65A): 251 nM; EC50 (CB2R WT [6]): 79.4 nM; EC50 (CB2R-L185^ECL2H [7]): 158 nM; EC50 (CB2R-V261^6.51L): > 10000 nM; Ki (CB2R-Quadruple^TM1,7 [9]): 79.4 nM
